Laboratory results reported in ChEMBL document CHEMBL3301361, “Experimental in vitro DMPK and physicochemical data on a set of publicly disclosed compounds”.

Experiments:
in vitro [1] = conditions: SD, HW or BN, rat, plasma
in vitro [2] = conditions: human, plasma, PPB

fraction unbound at 5 h (in vitro [2])	Compound	fraction unbound at 5 h (in vitro [1])
	O=P1(N(CCCl)CCCl)NCCCO1 (stereo not drawn) [CYCLOPHOSPHAMIDE ANHYDROUS]	0.858
0.236	CN(C)CCC=C1c2ccccc2COc2ccccc21 [DOXEPIN]	0.204
